Data as given in patent US4843074A.

How the values were obtained:
[1] = test system: carbachol-induced diarrhea; test: Inhibition of carbachol-induced diarrhea in mice; conditions: male CF1 mice, i.p., carbachol i.p. 30 minutes after drug
Colonic Motility = test: Inhibition of colonic motility in anesthetized rats (carbachol responses); conditions: anesthetized male rats, carbachol bolus 5 minutes after drug

Structure (SMILES): CCN(CC)CCOC(=O)C1(C2CCCCC2)CCCCC1
- Antag. Carbachol-ind. diarrhea, mice, ip, ED50 [1]: 0.65 mg/lg
- Colonic Motility, Anesth. Rat, i.v., IC50 (Colonic Motility): 0.33 mg/kg
